Data reported in patent US8034936B2, “Spirocyclic cyclohexane compounds useful to treat substance dependency” (Gruenenthal GmbH, priority 2005, dated 2011).

Sequences of proteins named here, by UniProt entry; tags and fusion partners are left off.
UniProt P41146, whole entry: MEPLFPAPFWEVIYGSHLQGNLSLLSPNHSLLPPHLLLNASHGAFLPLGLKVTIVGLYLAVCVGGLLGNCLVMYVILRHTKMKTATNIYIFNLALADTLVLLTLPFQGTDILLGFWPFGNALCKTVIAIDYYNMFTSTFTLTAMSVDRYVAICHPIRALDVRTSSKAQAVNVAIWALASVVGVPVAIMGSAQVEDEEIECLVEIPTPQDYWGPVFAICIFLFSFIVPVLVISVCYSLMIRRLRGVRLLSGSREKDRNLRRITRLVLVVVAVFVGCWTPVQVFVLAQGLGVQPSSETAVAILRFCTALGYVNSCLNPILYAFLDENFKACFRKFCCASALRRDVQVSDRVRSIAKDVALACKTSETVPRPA
UniProt P35372, whole entry: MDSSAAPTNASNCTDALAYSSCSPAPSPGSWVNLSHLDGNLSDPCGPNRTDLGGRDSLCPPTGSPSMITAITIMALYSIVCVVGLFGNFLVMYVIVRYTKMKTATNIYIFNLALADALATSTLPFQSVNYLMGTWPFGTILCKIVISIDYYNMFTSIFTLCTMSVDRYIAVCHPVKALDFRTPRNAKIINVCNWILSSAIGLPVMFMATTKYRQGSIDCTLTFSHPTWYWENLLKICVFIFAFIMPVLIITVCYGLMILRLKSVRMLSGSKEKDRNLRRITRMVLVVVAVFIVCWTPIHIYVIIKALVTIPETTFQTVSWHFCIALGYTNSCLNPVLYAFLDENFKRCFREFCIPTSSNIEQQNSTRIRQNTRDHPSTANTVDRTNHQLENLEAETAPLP

Experiments:
ORL1 receptor = ORL1 receptor (Homo sapiens, UniProt P41146); experiment: ORL1 receptor binding assay with 3H-nociceptin/orphanin FQ, membranes of recombinant CHO-ORL1 cells
human μ-opiate receptor = human μ-opiate receptor (Homo sapiens, UniProt P35372); experiment: μ-opiate receptor binding, [3H]-naloxone displacement, CHO-K1 membrane preparation
[1] = read-out: ORL1 human Ki, No. 1-49

Row | Compound | ORL1/μ Ratio calculated as Ki(μ)/Ki(ORL1) (ORL1 receptor; No. 1-49) | Ki (ORL1 receptor; [1]) [nM] | Ki (human μ-opiate receptor; read-out: μ Ki, No. 1-49) [nM] | ORL1/μ ratio calculated as Ki(μ)/Ki(ORL1) (only for measured Ki values) (ORL1 receptor; comparison compounds) | Ki (ORL1 receptor; read-out: ORL-1 Ki, printed in the % inhibition column) [nM] | Ki (human μ-opiate receptor; read-out: μ-opiate-receptor Ki, printed in the % inhibition column) [nM]
1 | CN(C)C1(c2ccsc2)CCC2(CC1)OCCc1c2[nH]c2ccc(F)cc12 (centres unmarked) | 1.62 | 0.3 | 0.6 |  |  | 
2 | CN(C)C1(c2ccsc2)CCC2(CC1)OCCc1c2[nH]c2ccccc12 (centres unmarked) | 1.19 | 0.6 | 0.7 |  |  | 
3 | CN(C)C1(c2cccs2)CCC2(CC1)OCCc1c2[nH]c2ccc(F)cc12 (centres unmarked) | 0.82 | 0.7 | 0.6 |  |  | 
4 | CNC1(c2ccccc2)CCC2(CC1)OCCc1c2[nH]c2ccc(F)cc12 (centres unmarked) |  |  |  | 0.1 | 14.3 | 1.8
5 | CNC1(c2cccs2)CCC2(CC1)OCCc1c2[nH]c2ccccc12 (centres unmarked) | 6.56 | 0.32 | 2.1 |  |  | 
6 | CN(C)C1(Cc2ccccc2)CCC2(CC1)NCCc1c2[nH]c2ccccc12 (centres unmarked) | 0.54 | 1.1 | 0.6 |  |  | 
7 | CN(C)C1(c2ccccc2)CCC2(CC1)OCCc1c2[nH]c2ccc(O)cc12 (centres unmarked) | 0.7 | 1.6 | 1.1 |  |  | 
8 | CN(C)C1(c2cccc(F)c2)CCC2(CC1)NCCc1c2[nH]c2ccccc12 (centres unmarked) | 2.22 | 3.6 | 8 |  |  | 
9 | CN(C)C1(c2ccccc2)CCC2(CC1)NCCc1c2[nH]c2ccc(F)cc12 (centres unmarked) | 0.51 | 1.4 | 0.7 |  |  | 
10 | CN(C)C1(c2cccs2)CCC2(CC1)OCCc1c2[nH]c2ccccc12 (centres unmarked) | 2.07 | 0.3 | 0.6 |  |  | 
11 | CN(C)C1(c2ccccc2)CCC2(CC1)NCCc1c2[nH]c2ccccc12 (centres unmarked) | 1.38 |  | 0.4 |  |  | 

Where two headings read alike, the source gives them in different places.
